Molecular target: T1, human SMS2 (Homo sapiens, UniProt Q8NHU3)
T1 sequence (Q8NHU3 1-365): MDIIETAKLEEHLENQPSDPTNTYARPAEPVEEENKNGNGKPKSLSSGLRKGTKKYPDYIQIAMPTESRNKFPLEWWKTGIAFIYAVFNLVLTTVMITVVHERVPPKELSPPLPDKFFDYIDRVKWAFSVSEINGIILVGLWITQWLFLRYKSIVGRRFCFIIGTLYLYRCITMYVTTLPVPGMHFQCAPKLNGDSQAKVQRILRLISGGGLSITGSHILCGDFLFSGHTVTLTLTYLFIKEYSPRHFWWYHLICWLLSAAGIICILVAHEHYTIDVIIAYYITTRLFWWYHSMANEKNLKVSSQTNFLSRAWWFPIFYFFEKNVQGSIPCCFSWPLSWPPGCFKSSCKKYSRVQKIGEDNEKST
Test: purified SMS enzyme inhibitory assay in vitro
Type: biochemical

IC50: 0.07 µM
Structure (SMILES): O=C(Nc1cccnc1)c1sccc1OCc1cc(F)ccc1Cl [14d]

From article PMC11873635 (Acta Pharmaceutica Sinica. B, 2024)
